Laboratory results taken from patent publication US20220267464A1.

The chains behind the UniProt entries cited, without tags or fusion partners. Residues count along the entry.
UniProt P06731, 35-685 E398K limits assumed: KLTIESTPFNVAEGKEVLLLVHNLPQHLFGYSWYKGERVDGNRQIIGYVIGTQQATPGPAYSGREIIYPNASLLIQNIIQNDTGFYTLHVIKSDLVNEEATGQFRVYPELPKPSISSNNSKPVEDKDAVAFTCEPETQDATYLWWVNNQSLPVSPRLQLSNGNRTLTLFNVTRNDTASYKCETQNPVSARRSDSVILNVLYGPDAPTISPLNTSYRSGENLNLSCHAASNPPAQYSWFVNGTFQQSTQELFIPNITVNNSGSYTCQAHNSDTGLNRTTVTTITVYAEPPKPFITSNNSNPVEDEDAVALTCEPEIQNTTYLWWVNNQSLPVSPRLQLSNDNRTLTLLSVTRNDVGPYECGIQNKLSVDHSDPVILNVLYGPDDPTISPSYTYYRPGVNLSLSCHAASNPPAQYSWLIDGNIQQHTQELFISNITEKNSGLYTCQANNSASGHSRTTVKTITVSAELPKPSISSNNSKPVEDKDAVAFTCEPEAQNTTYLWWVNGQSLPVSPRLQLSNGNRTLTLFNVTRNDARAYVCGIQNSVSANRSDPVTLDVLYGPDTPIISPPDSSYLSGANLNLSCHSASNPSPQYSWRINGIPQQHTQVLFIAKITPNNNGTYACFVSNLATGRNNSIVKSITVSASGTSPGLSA

Columns and labels:
[1] = target: cynomolgus monkey CEACAM5 on CHO-k1-cynoCEACAM5 clone 8 cells (cynomolgus monkey); assay: cell-based or functional assay
[2] = target: human CEACAM5 (carcinoembryonic antigen, CEA) on cells (human) (UniProt P06731); assay: cell-based or functional assay
[3] = target: cynomolgus monkey CEACAM5 on CHO-k1-cynoCEACAM5 clone 8 cells (cynomolgus monkey); assay: cell-based or functional assay; set-up: AUC of activation curve, Jurkat-hu4-1BB-NFκB-luc2 with CHO-k1-cyno CEACAM5 clone 8: unit not given beside the values
[4] = target: human CEACAM5 (carcinoembryonic antigen, CEA) on cells (human) (UniProt P06731); assay: cell-based or functional assay; set-up: AUC of activation curve, Jurkat-hu4-1BB-NFκB-luc2 with CHO-k1-cyno CEACAM5 clone 8: unit not given beside the values
[5] = target: human CEACAM5 (carcinoembryonic antigen, CEA) on cells (human) (UniProt P06731); assay: flow cytometry, CHO-k1-huCEACAM5 clone 11
[6] = target: human CEACAM5 (carcinoembryonic antigen, CEA) on cells (human) (UniProt P06731); assay: flow cytometry, CHO-k1-huCEACAM5 clone 12
[7] = target: human CEACAM5 (carcinoembryonic antigen, CEA) on cells (human) (UniProt P06731); assay: flow cytometry, CHO-k1-huCEACAM5 clone 13
[8] = target: human CEACAM5 (carcinoembryonic antigen, CEA) on cells (human) (UniProt P06731); assay: flow cytometry, CHO-k1-huCEACAM5 clone 17
[9] = target: human CEACAM5 (carcinoembryonic antigen, CEA) on cells (human) (UniProt P06731); assay: flow cytometry, CHO-k1-huCEACAM5 clone 11; set-up: unit not given beside the values
[10] = target: human CEACAM5 (carcinoembryonic antigen, CEA) on cells (human) (UniProt P06731); assay: flow cytometry, CHO-k1-huCEACAM5 clone 12; set-up: unit not given beside the values
[11] = target: human CEACAM5 (carcinoembryonic antigen, CEA) on cells (human) (UniProt P06731); assay: flow cytometry, CHO-k1-huCEACAM5 clone 13; set-up: unit not given beside the values
[12] = target: human CEACAM5 (carcinoembryonic antigen, CEA) on cells (human) (UniProt P06731); assay: flow cytometry, CHO-k1-huCEACAM5 clone 17; set-up: unit not given beside the values
[13] = target: human CEACAM5 (carcinoembryonic antigen, CEA) on cells (human) (UniProt P06731); assay: flow cytometry, CHO-k1-huCEACAM5 clone 11; remark: listed apart in the source
[14] = target: human CEACAM5 (carcinoembryonic antigen, CEA) on cells (human) (UniProt P06731); assay: flow cytometry, CHO-k1-huCEACAM5 clone 12; remark: listed apart in the source
[15] = target: human CEACAM5 (carcinoembryonic antigen, CEA) on cells (human) (UniProt P06731); assay: flow cytometry, CHO-k1-huCEACAM5 clone 11; set-up: unit not given beside the values; remark: listed apart in the source
[16] = target: human CEACAM5 (carcinoembryonic antigen, CEA) on cells (human) (UniProt P06731); assay: flow cytometry, CHO-k1-huCEACAM5 clone 12; set-up: unit not given beside the values; remark: listed apart in the source
[17] = target: cynomolgus monkey CEACAM5 on CHO-k1-cynoCEACAM5 clone 8 cells (cynomolgus monkey); assay: flow cytometry, CHO-k1-cynoCEACAM5 clone 8
[18] = target: cynomolgus monkey CEACAM5 on CHO-k1-cynoCEACAM5 clone 8 cells (cynomolgus monkey); assay: flow cytometry, CHO-k1-cynoCEACAM5 clone 8; set-up: unit not given beside the values
[19] = target: cynomolgus monkey CEACAM5 on CHO-k1-cynoCEACAM5 clone 8 cells (cynomolgus monkey); assay: flow cytometry, CHO-k1-cynoCEACAM5 clone 8; remark: listed apart in the source
[20] = target: cynomolgus monkey CEACAM5 on CHO-k1-cynoCEACAM5 clone 8 cells (cynomolgus monkey); assay: flow cytometry, CHO-k1-cynoCEACAM5 clone 8; set-up: unit not given beside the values; remark: listed apart in the source

EC50, NFκB-luciferase in Jurkat-hu4-1BB-NFκB-luc2 with CHO-k1-cyno CEACAM5 clone 8 [1]: 0.2 nM
EC50, NFκB-luciferase in Jurkat-hu4-1BB-NFκB-luc2 with CHO-k1-human CEACAM5 clone 11 [2]: 0.11 nM
EC50, NFκB-luciferase in Jurkat-hu4-1BB-NFκB-luc2 with CHO-k1-human CEACAM5 clone 12 [2]: 0.06 nM
AUC of activation curve, Jurkat-hu4-1BB-NFκB-luc2 with CHO-k1-cyno CEACAM5 clone 8 [3]: 76300
AUC of activation curve, Jurkat-hu4-1BB-NFκB-luc2 with CHO-k1-human CEACAM5 clone 11 [4]: 155000
AUC of activation curve, Jurkat-hu4-1BB-NFκB-luc2 with CHO-k1-human CEACAM5 clone 12 [4]: 155000
EC50 [5]: 1.75 nM
EC50 [6]: 2.18 nM
EC50 [7]: 6.39 nM
EC50 [8]: 1.84 nM
AUC [9]: 14300
AUC [10]: 49700
AUC [11]: 82100
AUC [12]: 15300
EC50 [13]: 6.68 nM
EC50 [14]: 10.9 nM
AUC [15]: 2850
AUC [16]: 8310
EC50 [17]: 8.82 nM
AUC [18]: 20600
EC50 [19]: 9.43 nM
AUC [20]: 3900
Substance: CEA (MEDI-565)-4-1BBL (Fc fusion)

Read-outs that look alike come from different tables or passages of the source.
